Test results: PMC6745270 (Neuropharmacology, 2019)

Assay: Phase I metabolic stability in rat liver microsomes
Format: in vitro ADME
Settings: rat liver microsomes fortified with NADPH, 60 min incubation, 10 μM compound

Buprenorphine [reference compound]
% intact remaining: < 1%
